Measurements as given in patent US10526581B2, “Modulation of cardiac stem-progenitor cell differentiation, assays and uses thereof” (priority 2013, dated 2020).

Tests used:
Type in all cases: cell-based, rat
[1] = system: c-kit^pos eCSCs; assay: cardiomyocyte differentiation of c-kit^pos eCSCs in differentiation medium (cTnI^pos cells, qRT-PCR)
Protocol: FIGS. 4(A-E). Adult myocardium produces cardiopoietic factors acting on the specific receptors of c-kit^pos eCSCs in vivo (A-C) Effect of growth factors and cytokines on c-kit^pos eCSC proliferation (A), clonogenicity (B), and cardiomyocyte differentiation (C) which was measured as percentage of cardiac troponin I (cTnI) expressing cells after 14 days in culture. *P<0.05 vs. CTRL. (D) Representative immunostaining of cardiac troponin I (cTnI; red) positive eCSC-derived cells following supplementation with IGF-1 (left panel) or TGF-β1 (right panel). Nuclei were identified by DAPI in blue. Bar=50 μm. (E) qRT-PCR analysis showing the fold change of c-kit, Oct-4, Gata-4, Nkx2.5 and cTnI mRNAs following 14 days in base differentiation medium (CTRL) and base differentiation medium supplemented with IGF-1 or TGF-β1, compared to cloned c-kit^pos eCSCs at P0 (Base). *P<0.05 vs. CTRL. †P<0.05 vs. IGF-1. Data are Mean±SD of n=6/condition. […]
To evaluate the role of TGF-β/SMAD signaling, BMP-2, BMP-4 and TGF-β1 were added to cultured c-kit^pos eCSCs.
RNA was extracted using Qiagen RNeasy columns and was reverse transcribed using first strand cDNA synthesis with random or oligo-dT primers (Applied Biosystems). Residual amounts of DNA were removed by on-column DNase treatment using the RNase-Free DNase Set (Qiagen) during the RNeasy procedure. Quantitative RT-PCR was performed using SYBR Green (BioRad) on a MyIQ thermocycler (BioRad). The PCR-reaction included 2 μl of template cDNA, and 300 nM forward and reverse primers. PCR efficiency was evaluated by using a standard curve of five serial dilution points. Data were analysed using BioRad IQ software and mRNA was normalized to the housekeeping gene, GAPDH. All reactions were carried out in triplicate.

[2] = system: c-kit^pos CD45^neg eCSCs; assay: BrdU incorporation proliferation assay of c-kit^pos eCSCs with cardiopoietic growth factors and Wnt or TGF-β modulators; conditions: in vitro
Protocol: (§1) c-kit^posCD45^neg eCSCs express functional receptors for these cardiopoetic factors (cGFs) (FIG. 4). In particular, both TGF-β1 and Wnt receptors are activated and signal to their known downstream effectors in eCSCs isolated from ISO injured hearts (FIG. 4). We thus directly tested in vitro the growth response of freshly isolated c-kit^pos CD45^neg eCSCs grown in limited serum (1% ESQ-FBS) to individual cGFs. Dose-response curves were performed to determine the optimal concentration for each cGF (FIG. 13A-H). […] These effects were confirmed by qRT-PCR of cardiomyocyte-specific mRNAs (FIG. 5).
(§2) Wnt/β-catenin and TGF-β/SMADs signaling play critical roles in the regulation of embryonic as well as different tissue-specific stem cell fate (21-23). In particular, these two signaling pathways have distinct functions in mammalian cardiogenesis (24-27). Thus, to extend our findings we have tested through gain and loss of function experiments the effects of Wnt/β-catenin and TGF-β/SMADs signaling pathways on c-kit^pos eCSC fate in vitro. […] To disrupt Wnt/ρ-catenin, c-kit^pos eCSCs were either treated with Dickkopf-1 (Dkk-1), an inhibitor of canonical Wnts or transfected with a specific short hairpin RNA for β-catenin (β-cat^shRNA). […]

[3] = system: c-kit^pos CD45^neg eCSCs; assay: clonogenic assay of c-kit^pos eCSCs; conditions: in vitro
Protocol: as §1, §2

B1: BMP-2: cardiopoietic growth factor (protein, UniProt P12643 283-396, looked up)
Bone morphogenetic protein 2: QAKHKQRKRLKSSCKRHPLYVDFSDVGWNDWIVAPPGYHAFYCHGECPFPLADHLNSTNHAIVQTLVNSVNSKIPKACCVPTELSAISMLYLDENEKVVLKNYQDMVVEGCGCR
differentiation of eCSCs into the cardiomyocyte lineage (myocyte specification) ([1]; differentiation medium): promoted differentiation
number of myocyte differentiating (cTnI^pos) cells ([1]; differentiation medium (LIF withdrawal)): significantly induced
transcription of myogenic lineage markers ([1]; differentiation medium (LIF withdrawal), qRT-PCR): significantly induced
c-kit^pos eCSC proliferation (growth, expansion) [2]: did not affect; also recorded: Neither BMP-2, BMP-4, TGF-β1 supplementation nor Smad2 knock-down affected
c-kit^pos eCSC clonogenicity [3]: did not affect; also recorded: Neither BMP-2, BMP-4, TGF-β1 supplementation nor Smad2 knock-down affected

Entries after “also recorded” stand apart in the source; their conditions may differ.
